This passage reports clearance and efflux ratio results from ChEMBL document CHEMBL1949541, “Discovery of 7-arylsulfonyl-1,2,3,4, 4a,9a-hexahydro-benzo[4,5]furo[2,3-c]pyridines: identification of a potent and selective 5-HT₆ receptor antagonist showing activity in rat social recognition test” (Bioorg Med Chem Lett, 2012).

A short description of data set [1]: Plasma clearance in rat at 1 mg/kg, iv. It is filed as ADME, organism-based. Further details: dose 1 mg/kg, route intravenous.
Data set [2] in a line: Efflux ratio of apparent permeability across MDCK2-MDR1 cells. Format: ADME, cell-based, Canis lupus familiaris. The conditions noted are these: dog, MDCK-MDR1.

With `COc1cc(OC(C)C)cc(S(=O)(=O)c2ccc3c(c2)O[C@H]2CNCC[C@@H]32)c1.Cl` (single isomer, unassigned; enantiomer 1), the clearance (usually the rate of elimination divided by the concentration) in data set [1] worked out at 41 mL/min/kg. Also, the efflux ratio (commonly a quotient of directional permeabilities that is used to spot active efflux) in data set [2] stood at 3.
